Drawing on PubChem BioAssay AID588674 (Broad Institute, 2011), this text covers inhibition for 36 molecules.

Only a part is listed here, and it is no random draw. Calls of active or inactive are those of the source.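 The calls were made as follows: active = mean inhibition of at least 75% with every replicate also reaching 75%; inconclusive = mean inhibition at least 75% but some replicate below; inactive = mean inhibition below 75%.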

This assay is described as follows: Shn3 3'UTR reporter decrease in osteoblasts – cell-based, Clone20 osteoblasts, firefly luciferase, set 2, Schnurri-3 inhibitor project, primary screen (AID 588674).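 Also: 0% = median of neutral control wells and 100% = pilot-screen positive control compound.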 As to conditions: Clone20 osteoblast Shn3 3'UTR firefly luciferase, 24 h; at 12.5 µM; stronger effect = higher value.
The inhibition is the relative decrease from the control value, in per cent. Turning to `O=[N+]([O-])c1cc([N+](=O)[O-])c(Nc2nnnn2CCO)c([N+](=O)[O-])c1`, the inhibition is inactive: -0.474%.

With `CCCOc1ccc(NP(C)(=O)Oc2ccc(Cl)cc2)cc1` (stereo unspecified), the inhibition was inactive: -6.75%.

Regarding `CP(=O)(Nc1ccc(SC(F)(F)F)cc1)Oc1ccccc1` (stereo unspecified), the inhibition is inactive: 30.6%.

With `CN1CCCCC1COC(=O)C1(O)c2ccccc2CCc2ccccc21` (stereo unspecified), the inhibition is inactive: 1.22%.

For the molecule `COc1ccccc1OP(C)(=O)Nc1c(C)cccc1C` (stereo unspecified), the inhibition was inactive: -8.03%.

As for `CC1=NCCc2c1[nH]c1ccccc21.O=[N+]([O-])c1cc([N+](=O)[O-])c(O)c([N+](=O)[O-])c1`, the inhibition was inactive: 0.188%.

Regarding `CCOC(=O)c1ccc(NP(C)(=O)Oc2cc(C)cc(C)c2)cc1` (stereo unspecified), the inhibition is inactive: -8.62%.

`Cc1cc(C)cc(OP(C)(=O)Nc2ccc(C)cc2C)c1` (stereo unspecified): the inhibition was inactive: -21%.

Consider `COc1ccccc1OP(C)(=O)Nc1cccc(Br)c1` (stereo unspecified), for which the inhibition is inactive: -1.95%.

For the molecule `Cc1ccc(C)c(NP(C)(=O)Oc2ccccc2)c1` (stereo unspecified), the inhibition is inactive: 13.7%.

In the case of `Cc1cc(C)cc(OP(C)(=O)Nc2ccccn2)c1` (stereo unspecified), the inhibition was inactive: 13.1%.

On to `CP(=O)(Nc1cccc(Br)c1)Oc1ccccc1` (stereo unspecified), for which the inhibition was inactive: 1.26%.

As to `CCN(CC)CCCOC(=O)C(O)(c1ccccc1)c1ccccc1`, the inhibition is inactive: -8.23%.

As for `O=[N+]([O-])c1ccc2c(c1)C=Nc1ccccc1O2`, the inhibition was inactive: -9.16%.

On to `Cc1cccc(C)c1OP(C)(N)=O` (stereo unspecified), for which the inhibition is inactive: -9.47%.

As for `CC(C)(C)c1ccc(OP(C)(=O)Nc2ccc(SC(F)(F)F)cc2)cc1` (stereo unspecified), the inhibition is inactive: -5.33%.

For the molecule `O=[N+]([O-])c1cc([N+](=O)[O-])c(Nc2cccnc2)c([N+](=O)[O-])c1`, the inhibition was inactive: -2.04%.

For `Cc1cc(C)cc(OP(C)(N)=O)c1` (stereo unspecified), the inhibition was inactive: -12%.

In the case of `COc1ccc(OP(C)(=O)Nc2cccc(F)c2)cc1` (stereo unspecified), the inhibition is inactive: 10.9%.

As for `COc1ccccc1OP(C)(=O)Nc1cc(Cl)ccc1C` (stereo unspecified), the inhibition was inactive: -5.09%.

As for `Cc1ccc(NP(C)(=O)Oc2ccccc2)c(C)c1` (stereo unspecified), the inhibition is inactive: -17.4%.

Consider `COc1ccccc1OP(C)(=O)Nc1ccc(C)cc1` (stereo unspecified), for which the inhibition is inactive: -2.16%.

For `CCOC(=O)c1ccc(NP(C)(=O)Oc2ccccc2)cc1` (stereo unspecified), the inhibition is inactive: -11%.

In the case of `CP(=O)(Nc1ccccc1Br)Oc1ccccc1` (stereo unspecified), the inhibition was inactive: 2.8%.

Take `COc1ccccc1OP(C)(=O)Nc1ccccc1` (stereo unspecified): the inhibition is inactive: 11.7%.

With `CP(=S)(Nn1cnnc1)Oc1ccccc1` (stereo unspecified), the inhibition was inactive: 0.603%.

`Cc1cc(C)cc(OP(C)(=O)Nc2ccc(SC(F)(F)F)cc2)c1` (stereo unspecified): the inhibition is inactive: -4.71%.

With `CP(=O)(NC(=O)Nc1ccccc1)Oc1ccccc1` (stereo unspecified), the inhibition was inactive: 3.74%.

As to `CCc1ccc(OP(C)(=O)N2CCN(c3ccc([N+](=O)[O-])cc3)CC2)cc1` (stereo unspecified), the inhibition is inactive: 34.8%.

For the molecule `CP(=O)(Oc1ccccc1)OC(c1ccccc1)C(F)(F)F` (stereo unspecified), the inhibition was inactive: 17.1%.

Turning to `CP(=O)(Nc1ccc(SC(F)(F)F)cc1)Oc1ccc(Cl)cc1` (stereo unspecified), the inhibition is inactive: -8.63%.

Take `Cc1cccc(C)c1OP(C)(=O)Nc1ccc(SC(F)(F)F)cc1` (stereo unspecified): the inhibition was inactive: 6.41%.

On to `Cc1ccc(Nc2c([N+](=O)[O-])cc([N+](=O)[O-])cc2[N+](=O)[O-])cc1`, for which the inhibition was inactive: 12.9%.

On to `CP(=O)(Nc1ccccn1)Oc1ccc(Cl)cc1` (stereo unspecified), for which the inhibition was inactive: 3.48%.

For `CCOC(=O)c1ccc(NP(C)(=O)Oc2ccc(OC)cc2)cc1` (stereo unspecified), the inhibition is inactive: 12.6%.

Regarding `CCOP(C)(=S)SCC(=O)NC(C)C(=O)O` (stereo unspecified), the inhibition was inactive: -11%.
